Experimental data from patent publication EP4524159A1, “ANTIBODY AND USE THEREOF” (Sichuan Huiyu Pharmaceutical Co., Ltd., priority 2022, dated 2023).

T1: HuCDCP1-B (human) (UniProt Q9H5V8)
T1 sequence (looked up): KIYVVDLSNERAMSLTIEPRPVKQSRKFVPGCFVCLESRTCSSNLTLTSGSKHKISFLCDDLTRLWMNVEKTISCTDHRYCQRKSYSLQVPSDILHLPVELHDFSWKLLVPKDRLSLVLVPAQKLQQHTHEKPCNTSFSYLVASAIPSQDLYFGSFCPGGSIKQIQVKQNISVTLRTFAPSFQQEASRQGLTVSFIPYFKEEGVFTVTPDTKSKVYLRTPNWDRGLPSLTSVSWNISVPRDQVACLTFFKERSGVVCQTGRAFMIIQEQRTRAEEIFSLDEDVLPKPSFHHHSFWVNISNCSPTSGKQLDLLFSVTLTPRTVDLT

B1: SB16 (antibody, V domains shown)
VH: QVQLQQSGPELVRPGVSVRISCKGSGYPFTDYAIHWVKQGHGKNLEWIGVIAPYSDNTGYNQRFKGKATMTVDKSSSTAYMELARLTSEDSAIYYCAAYGNYGYYTMDYWGQGTSVTVSS
VL: DIQMTQSTSSLSASLGDRVTITCRASQDITNYLNWYQQKPDGTVKLLIYYTSRLHSGVPSRFSGSGSGTDFSLTISNLEQEDIATYFCQQGNTLPWTFGGGTKLEII
B2: SB11 (antibody, V domains shown)
VH: EVQLQQSGAELVKPGASVKLSCTASGFNIQDTYILWVKQRPEQGLEWIGGIDPANDNTNYGPNFQGKATITADTSSNTAYLQLSSLTSEDSAVYYCAREDAYPWFAYWGQGTLVTVSS
VL: DIVLTQSPASLAVSLGQRATISCRASQSVSTSSYSYMHWYQLKPGQPPKLLIKYASNLESGVPARFSGSGSGTDFTLNIHPVEEEDAAIYYCQHNWEIPWTFGGGTRLEIK
B3: SB14 (antibody, V domains shown)
VH: QVQLQQSGNEVVKPGASVKLSCKTSGYTFTNYWLQWVKQRPGQGLEWIGEIFPGTGTTYYNEKFKDQATVTIDTSSSTAYIHLSSLTSEDSAVYFCARTNWEGYYFDYWGQGTTLTVSS
VL: ENVLTQSPAIMSASSGEKVTMTCRASSSVRSSYLHWYQQKSGASPKVWIYSTSNLASGVPVRFSGSGSGTSYSLTISSVEAEDAATYYCQQYSGSPSWTFGGGTKLEIK
B4: SB13 (antibody, V domains shown)
VH: EVKLVESGGGLVQPGGSLRLSCATSGFTFSDFYMEWVRQPPGKRLEWIAVSRDKTNDYTTEYSASMKGRFIVSRDTSQSILYLQMNALRAEDTAIYYCARDGVYYYGSSYTLDYWGQGTSVTVSS
VL: DIVMTQSHKFMSTSVGDRVSITCKASQDVSSSVAWYQQKPGQSPKLLIYWASTRHTGVPDRFTGSGSGTDYTLTISSVQAEDLALYYCQQHYNTPPTFGGGTKLEIK
B5: SB17 (antibody, V domains shown)
VH: QVTLKESGPGILQPSQTLSLTCSFSGFSLSTSGMSVGWIRQPSGKGLEWLAHIWWNDDKYYNPALKTRLTISKDSSNNQIFLKIASVVTADSATYYCARIGYYYGTYALDYWGPGTSVTVSS
VL: QIVLTQSPALMTASPGEQVTMTCSASSSVSYIHWYQQKSGTSPKRWIYDASKLASGVPARFSGSGSGTSYSLTISSMEAEDAATYYCQQWSSYPLTFGGGTKLELK
B6: SB18 (antibody, V domains shown)
VH: QVTLKESGPGILQPSQTLSLTCSFSGFSLTTSGMNVGWLRQPSGKGLEWLAHIWWNDDKHSNPVLKSRLTISKDTSNNQAFLKIANVVTADSATYYCARLRDGGFAYWGQGTLVTVSA
VL: DIQMTQTTSSLSASLGDRVTISCSASQAISNYLNWYQQKPDGTVKLLIYYTSHLHSGVPSRFSGSGSGTDYSLTISNLEPEDIATYYCQQYSKIPWTFGGGTKLEII
B7: SB15 (antibody, V domains shown)
VH: EVKLVESGGGLVKPGGSLKLSCAASGFTFSSYGMSWVRQTPEKRLEWVATISGGINYTYYRDSVEGRFTISRDNAKNNLYLQMSRLRSEDTALYYCARHDRYDGYYYVMDYWGQGTSVTVSS
VL: DIQMTQSPSSLSASLGERVSLTCRASQEISGYLTWLQQRPDGTIKRLIYAASTLDSGVPKRFSGSRSGSDYSLTISSLESEDFADYYCLQYASYPYTFGGGTKLEIK

These binders were tested against HuCDCP1-C (human) (UniProt Q9H5V8) (assay: ELISA, HuCDCP1-C coated 2 ug/ml).

ELISA	Binder
19.6 nM	B1
0.038 nM	B2
0.067 nM	B3
0.048 nM	B4
0.046 nM	B5
0.121 nM	B6
0.042 nM	B7

What follows are binders tested against T1, HuCDCP1-B (human) (assay: ELISA, HuCDCP1-B coated 2 ug/ml).

ELISA	Binder
0.035 nM	B2
0.056 nM	B3
